Sampled rows, rich in hits. Any-hit rate of the full collection: about 1.3%.
Yeast UUG start: yeast start codon fidelity modulation | S. cerevisiae UUG-firefly luciferase reporter, luminescence/redox ratio | activity score, % at 18.7 µM | hit rate 0.13% among 350,000 | AID 602363;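 active means replicate mean at a twofold rise or more, about +100% in these data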;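 further: firefly luciferase made from a UUG start codon reports start codon fidelity; reporter light over untreated wells divided by growth signal over untreated wells; some hits fall short of that in this replicate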
SR-BI uptake up: activators of SR-BI mediated HDL lipid uptake; activation, % at 12.5 µM; actives 0.096% (n = 320,000); CHO ldlA[mSR-BI] cells, DiI-HDL uptake fluorescence, 3 h; 100 = double the neutral-control signal;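 active means mean replicate activation of at least 60% and every replicate at or above 60%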;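 further: 0% = median plate neutral-control signal and 100% = twice that signal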
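Assay system: LDL receptor-deficient CHO ldlA cells overexpressing murine SR-BI / Medium: BSA-supplemented, HEPES-buffered Ham's F12, pH 7.4 / Probe or stimulus: DiI-labelled HDL at 10 µg/mL final / Timing: compound with DiI-HDL co-incubation, 3 h at 37 °C / Technique: bottom-read cell fluorescence after medium removal, ex 550/em 595 nm / Measure: HDL uptake via cellular fluorescence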
SR-BI HDL uptake: blocks mouse SR-BI lipid uptake from DiI-HDL. Q61009. ldlA[mSR-BI] CHO cells, DiI-HDL uptake fluorescence, 3 h. inhibition, % at 12.5 µM. actives 0.96% (n = 320,000);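 active means mean replicate inhibition of at least 70% and a set share of replicates each scoring 70 or more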;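 further: 0% = median of neutral control wells and 100% = median of positive control wells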
GSIS activator: primary screen for activators of insulin secretion dependent on glucose, INS-1E cells, GLuc reporter luminescence; activation, % at 16.6 µM; INS-1E GLuc reporter insulin secretion, 2-3 h; AID 743287; actives 0.61% (n = 370,000);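 active means lowest replicate activation of at least 40%, so every replicate reaches that level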;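 further: 0% = median of neutral control wells and 100% = median of IBMX positive control wells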
An asterisk follows results filed as active; . = not tested or not shown.

Key to letters – A = Yeast UUG start; B = SR-BI uptake up; C = SR-BI HDL uptake; D = GSIS activator
SMILES: CN1C[C@H](O)COC[C@@H]2O[C@H](CC(=O)NC3CCC3)CC[C@H]21
  A: -15; B: .; C: .; D: 5

SMILES: COCCNC(=O)C[C@H]1C=C[C@@H](NS(=O)(=O)c2ccc(C)cc2)[C@H](CO)O1
  A: 8; B: .; C: .; D: -9

SMILES: O=C(c1ccncc1)N1CC(=O)N2[C@H](C1)[C@H](c1ccc(C#CCC3CCCC3)cc1)[C@@H]2CO
  A: .; B: .; C: .; D: 2

SMILES: CC(=O)c1sc2nc(-c3cccs3)cc(C(F)(F)F)c2c1N
  A: -7; B: -72; C: 72*; D: .

SMILES: Cc1ccc(-n2c(SCC(=O)N3CCOCC3)nnc2-c2cccnc2)cc1C
  A: 6; B: 15; C: -15; D: .

SMILES: CCSc1nnc(-c2cccnc2)n1-c1ccc(C)c(Cl)c1
  A: -17; B: 5; C: -5; D: 64*

SMILES: C[C@@H]1CCCCO[C@H](CN(C)S(=O)(=O)c2cccs2)[C@H](C)CN([C@@H](C)CO)C(=O)c2cc(NC(=O)Cc3ccccc3)ccc2O1
  A: -2; B: .; C: .; D: -21

SMILES: CCn1c(C(=O)NCc2cccnc2)cc2sc(Cl)cc21
  A: -1; B: 418*; C: -418; D: -16

SMILES: C[C@H](CO)N1C[C@H](C)[C@@H](CN(C)Cc2ccc(C(=O)O)cc2)OCCCC[C@H](C)Oc2ccc(NC(=O)C3CCCCC3)cc2C1=O
  A: 4; B: .; C: .; D: 7

SMILES: CCc1cccc(NC(=O)C2CCCN2S(=O)(=O)c2ccc3c(c2)n(C)c(=O)c(=O)n3C)c1 (stereo unspecified)
  A: 11; B: -12; C: 12; D: 46*

SMILES: CC(NC(=O)C1CCCN1S(=O)(=O)c1ccc2c(c1)n(C)c(=O)c(=O)n2C)c1ccccc1 (stereo unspecified)
  A: 3; B: 4; C: -4; D: 54*

SMILES: COc1ccc(S(=O)(=O)Nc2ccc3c(c2)CC(=O)N([C@@H](C)CO)C[C@@H](C)[C@H](CN(C)S(C)(=O)=O)O3)cc1
  A: -4; B: .; C: .; D: -7

SMILES: CCSc1nc(N2CCCCC2)c2c(c1C#N)CCCC2
  A: 3; B: -76; C: 76*; D: .

SMILES: N#Cc1c(SCc2ccccc2)nc(N2CCOCC2)c2c1CCCC2
  A: -12; B: .; C: .; D: .

SMILES: N#Cc1c(N)n(C2CCCCC2)c2nc3ccccc3nc12
  A: -17; B: -30; C: 30; D: 43*

SMILES: CO[C@@H]1CN(C)C(=O)c2cc(NC(=O)Nc3ccccc3F)ccc2OC[C@H](C)N(Cc2ccccc2C(=O)O)C[C@@H]1C
  A: 4; B: .; C: .; D: 11

SMILES: COc1ccc(-c2cnc3c(-c4ccc(F)cc4)cnn3c2N)cc1
  A: -12; B: -95; C: 95*; D: -7

SMILES: COc1ccc(-c2cnn3c(N)c(S(=O)(=O)C(C)(C)C)cnc23)cc1
  A: -13; B: -12; C: 12; D: .

SMILES: COC(=O)C[C@@H]1C[C@@H]2c3cc(NC(=O)CN(C)C)ccc3O[C@@H]2[C@@H](CO)O1
  A: .; B: .; C: .; D: 25

SMILES: CC(C)NC(=O)N(C)C[C@H]1Oc2ncc(C#CC3CCCC3)cc2C(=O)N([C@H](C)CO)C[C@@H]1C
  A: 0; B: .; C: .; D: -9

SMILES: CC1=C(/C=C/C(C)=N\NC(=O)c2ccncc2)C(C)(C)CCC1
  A: .; B: -87; C: 87*; D: -2

SMILES: CC(/C=C/c1ccc2c(c1)OCO2)=N/NC(=O)c1ccncc1
  A: -12; B: -6; C: 6; D: .

SMILES: CCOC(=O)C(=N/O)/C(C)=N/NC(=O)C(=O)Nc1cc(Cl)ccc1Cl
  A: .; B: -81; C: 81*; D: .

SMILES: CCOC(=O)C(=N/O)/C(C)=N/NC(C)=O
  A: -9; B: 14; C: -14; D: -8

SMILES: CN(Cc1ccccc1)c1ncnc2[nH]ncc12
  A: -8; B: 10; C: -10; D: 40*

SMILES: CN(Cc1ccccc1)c1ncnc(N)c1[N+](=O)[O-]
  A: .; B: -8; C: 8; D: 44*

SMILES: CN(Cc1ccccc1)c1ncnc2sccc12
  A: -11; B: 6; C: -6; D: -13

SMILES: C[C@@H]1CN([C@H](C)CO)S(=O)(=O)c2ccc(-c3ccc(C(=O)N(C)C)cc3)cc2O[C@@H]1CN(C)C(=O)C1CCCCC1
  A: 8; B: .; C: .; D: -1

SMILES: C[C@H](CO)N1C[C@H](C)[C@H](CN(C)Cc2ccc(C(=O)O)cc2)Oc2c(NS(=O)(=O)c3ccc(Cl)cc3)cccc2C1=O
  A: -1; B: .; C: .; D: 18

SMILES: COc1ccc(CC(=O)OCC(=O)N2CCCc3ccccc32)cc1OC
  A: .; B: 0; C: 0; D: 111*

SMILES: COc1cccc(C(=O)OCC(=O)N2CCc3ccccc32)c1OC
  A: -11; B: 11; C: -11; D: 7

SMILES: COc1ccc(CC(=O)OCC(=O)Nc2cccc(C(C)=O)c2)cc1OC
  A: 6; B: 13; C: -13; D: 59*

SMILES: COc1ccc(CC(=O)OCC(=O)N2CCc3ccccc32)cc1OC
  A: -9; B: 6; C: -6; D: 121*

SMILES: COc1ccc2c3c([nH]c2c1)[C@H](CO)N(C(=O)C1CCC1)CC31CCN(C(=O)NC(C)C)CC1
  A: .; B: .; C: .; D: -2

SMILES: Cc1cccc(NC(=O)CSc2nnc(CNC(=O)c3ccc(S(=O)(=O)N(C)C)cc3)n2-c2cccc(C)c2)c1
  A: -16; B: -85; C: 85*; D: -8

SMILES: Cc1cccc(NC(=O)CSc2nnc(CNC(=O)c3ccc(S(=O)(=O)N(C)C)cc3)n2-c2ccccc2)c1
  A: 1; B: -13; C: 13; D: -21

SMILES: CCCCCCCCC#Cc1nc(C)ccc1OC
  A: -9; B: 4; C: -4; D: 56*

SMILES: Cc1cc(NC(=O)c2ccccc2F)n(-c2nc3ccccc3[nH]2)n1
  A: -24; B: -76; C: 76*; D: 64*

SMILES: Cc1cc(NC(=O)c2ccc(C)s2)n(-c2nc3ccccc3[nH]2)n1
  A: .; B: -72; C: 72*; D: 14

SMILES: Cc1cc(NC(=O)c2c(F)cccc2Cl)n(-c2nc3ccccc3[nH]2)n1
  A: -2; B: -92; C: 92*; D: .

Arranged by heavy-atom count (lowest first): four of the compounds above
Key to letters – A = Yeast UUG start; B = SR-BI uptake up; C = SR-BI HDL uptake; D = GSIS activator
SMILES: CCCCCCCCC#Cc1nc(C)ccc1OC
  A: -9; B: 4; C: -4; D: 56*

SMILES: COc1ccc2c3c([nH]c2c1)[C@H](CO)N(C(=O)C1CCC1)CC31CCN(C(=O)NC(C)C)CC1
  A: .; B: .; C: .; D: -2

SMILES: Cc1cccc(NC(=O)CSc2nnc(CNC(=O)c3ccc(S(=O)(=O)N(C)C)cc3)n2-c2ccccc2)c1
  A: 1; B: -13; C: 13; D: -21

SMILES: Cc1cccc(NC(=O)CSc2nnc(CNC(=O)c3ccc(S(=O)(=O)N(C)C)cc3)n2-c2cccc(C)c2)c1
  A: -16; B: -85; C: 85*; D: -8

(more compounds)
Key to letters – A = Yeast UUG start; B = SR-BI uptake up; C = SR-BI HDL uptake; D = GSIS activator
SMILES: Cc1cc(NC(=O)c2c(F)cccc2F)n(-c2nc3ccccc3[nH]2)n1
  A: -7; B: -66; C: 66; D: -25

SMILES: Cc1cc(NC(=O)/C=C/c2cccc(F)c2)n(-c2nc3ccccc3[nH]2)n1
  A: .; B: -95; C: 95*; D: 36

SMILES: Cc1noc(C)c1NC(=O)N(C)C[C@H]1Oc2ccc(NC(=O)CCN3CCOCC3)cc2CC(=O)N([C@H](C)CO)C[C@@H]1C
  A: 1; B: .; C: .; D: 8

SMILES: CN1C(=O)c2cc(NC(=O)Nc3ccccc3F)ccc2OC[C@@H]2O[C@@H](CC(=O)O)CC[C@@H]21
  A: -1; B: .; C: .; D: 9

SMILES: CCOC(=O)C1=C(C)NC(=O)C(C#N)C1c1ccco1 (stereo unspecified)
  A: .; B: 61*; C: -61; D: 34

SMILES: Cc1ccc(S(=O)(=O)Nc2ccc3c(c2)C(=O)N([C@H](C)CO)C[C@@H](C)[C@@H](CN(C)C(=O)NC2CCCCC2)OCCCC[C@@H](C)O3)cc1
  A: 22; B: .; C: .; D: -19

SMILES: O=C(Nc1ccc2c(c1)[C@H]1C[C@@H](CC(=O)N3CCCCC3)O[C@@H](CO)[C@H]1O2)c1cccnc1
  A: -8; B: .; C: .; D: 2

SMILES: C[C@@H]1CN([C@@H](C)CO)C(=O)c2cccc(NS(C)(=O)=O)c2O[C@@H]1CN(C)C(=O)Nc1ccc2c(c1)OCO2
  A: 35; B: .; C: .; D: 14

SMILES: O=C(NC(=S)Nc1cccc2[nH]ncc12)c1ccccc1
  A: -8; B: -12; C: 12; D: 159*

SMILES: COCCN(C(=O)COC(=O)Cc1cccc(OC)c1)c1c(N)n(CC(C)C)c(=O)[nH]c1=O
  A: .; B: 1; C: -1; D: 53*

SMILES: Cc1ccc2c(c1)N(C(C)C(=O)NCc1cccs1)C(=O)CO2 (stereo unspecified)
  A: -7; B: .; C: .; D: 51*

SMILES: CC(=O)Nc1ccc2c(c1)C(=O)N(C)[C@@H]1CC[C@@H](CC(=O)NCc3ccc(F)cc3)O[C@@H]1CO2
  A: 7; B: .; C: .; D: 3

SMILES: CCS(=O)(=O)c1nc(S(=O)(=O)c2ccc(C)cc2)c(N2CCC(O)CC2)s1
  A: -39; B: 12; C: -12; D: 41*

Assay outcomes from PubChem.
